Results reported in ChEMBL document CHEMBL1221249, “Synthesis and in vitro binding studies of piperazine-alkyl-naphthamides: impact of homology and sulphonamide/carboxamide bioisosteric replacement on the affinity for 5-HT1A, alpha2A, D4.2, D3 and D2L receptors” (Bioorg Med Chem Lett, 2010).

Experiments:
[1] = target: 5-hydroxytryptamine receptor 1A (Homo sapiens) (UniProt P08908); test: Displacement of [3H]MK912 from human alpha2A receptor after 60 mins
[2] = target: D(4) dopamine receptor (Homo sapiens) (UniProt P21917); test: Displacement of [3H]8OH-DPAT from human 5HT1A receptor after 60 mins

Ki [1]: 6.15 nM
Ki [2]: 102 nM
Structure (SMILES): COc1ccccc1N1CCN(CCCCCCNC(=O)c2ccc3ccccc3c2)CC1
